Sequences of proteins named here, by UniProt entry; tags and fusion partners are left off. A change or cut given only in a name is not applied to a line headed by its entry.
UniProt Q12809: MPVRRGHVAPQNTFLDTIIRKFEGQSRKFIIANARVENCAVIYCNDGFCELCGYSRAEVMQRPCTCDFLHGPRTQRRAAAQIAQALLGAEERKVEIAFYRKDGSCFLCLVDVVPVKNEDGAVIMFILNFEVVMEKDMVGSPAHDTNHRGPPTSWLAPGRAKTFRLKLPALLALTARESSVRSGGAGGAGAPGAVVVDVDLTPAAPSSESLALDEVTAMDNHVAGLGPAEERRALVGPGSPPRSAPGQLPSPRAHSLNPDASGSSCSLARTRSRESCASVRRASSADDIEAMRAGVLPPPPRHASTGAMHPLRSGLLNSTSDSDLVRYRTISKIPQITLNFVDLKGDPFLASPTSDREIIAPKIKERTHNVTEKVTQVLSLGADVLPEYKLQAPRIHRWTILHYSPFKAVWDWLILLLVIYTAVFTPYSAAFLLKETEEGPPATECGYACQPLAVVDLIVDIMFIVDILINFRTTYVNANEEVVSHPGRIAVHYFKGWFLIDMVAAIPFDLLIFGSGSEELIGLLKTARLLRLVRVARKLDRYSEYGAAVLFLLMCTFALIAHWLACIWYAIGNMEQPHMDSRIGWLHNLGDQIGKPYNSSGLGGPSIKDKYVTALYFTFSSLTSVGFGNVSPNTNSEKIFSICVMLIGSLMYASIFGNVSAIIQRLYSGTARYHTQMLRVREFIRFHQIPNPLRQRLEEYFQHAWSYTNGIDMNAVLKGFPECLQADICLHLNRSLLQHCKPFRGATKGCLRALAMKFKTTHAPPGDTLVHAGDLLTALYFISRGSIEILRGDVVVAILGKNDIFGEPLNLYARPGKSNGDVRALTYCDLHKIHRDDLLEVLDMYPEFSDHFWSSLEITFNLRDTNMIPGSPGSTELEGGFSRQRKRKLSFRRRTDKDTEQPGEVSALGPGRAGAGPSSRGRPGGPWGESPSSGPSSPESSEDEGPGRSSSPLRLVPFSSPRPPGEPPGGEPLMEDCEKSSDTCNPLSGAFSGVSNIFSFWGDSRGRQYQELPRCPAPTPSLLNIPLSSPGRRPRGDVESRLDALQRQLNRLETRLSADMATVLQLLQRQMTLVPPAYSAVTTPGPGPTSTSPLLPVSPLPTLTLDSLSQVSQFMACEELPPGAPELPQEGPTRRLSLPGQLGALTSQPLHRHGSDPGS

In ChEMBL document CHEMBL4028901, “Novel Antitubercular 6-Dialkylaminopyrimidine Carboxamides from Phenotypic Whole-Cell High Throughput Screening of a SoftFocus Library: Structure-Activity Relationship and Target Identification Studies” (J Med Chem, 2017):

Target: Voltage-gated inwardly rectifying potassium channel KCNH2 (Homo sapiens, UniProt Q12809)

First: CN(Cc1ccc(C(F)(F)F)nc1)c1cc(C(=O)Nc2nncs2)ncn1
Second: CN(Cc1ccc(C(F)(F)F)nc1)c1cc(C(=O)Nc2ccccc2)ncn1
The IC50 of the first is 2.5-fold higher: 14 µM for the first, 5.6 µM for the second. The second is the more potent here.

Going from `CN1CCN(c2ccc(NC(=O)c3cc(N(C)Cc4ccc(C(F)(F)F)cc4)ncn3)cc2)CC1` to `CN(Cc1ccc(C(F)(F)F)cc1)c1cc(C(=O)Nc2ccccc2)ncn1`, the IC50 rises from 0.9 µM to 3.3 µM (3.7-fold). The first is the more potent here.

For `CC(C)Oc1ccc(NC(=O)c2cc(N(C)Cc3ccc(F)cc3)ncn2)cc1`, the IC50 was 4.1 µM.
